Literature values as cited in patent publication US7115574B2, “System and method for support legacy operating system booting in a legacy-free system” (priority 2001, dated 2006).

Settings: Lipton and Catania, Immunol. Today 1997; cited from earlier work

## Ac-Lys-Pro-Val-NH2 (KPV; N-acetyl, C-amide; Designed polypeptide with anti-inflammatory, anti-bacterial, anti-fungal and antipyretic properties.) [α-MSH(11-13)]
  toxicity: very low toxicity
